Data published in PubChem BioAssay AID372 (MTDP, 2006).
Only a part is listed here, and it is no random draw. Some of these compounds have results that are not shown, active ones among them. Calls of active or inactive are those of the source. No stated cut-off is given here; in the data, active means inhibition above about 50%; inactive means the rest.

target: Gag-Pol polyprotein (Human immunodeficiency virus type 1 group M subtype B (isolate HXB2)) (UniProt P04585); experiment: RNase H inhibition, HIV 1 Gag Pol polyprotein, FRET biochemical assay, screening (AID 372); conditions: HIV-1 RT RNase H, FRET RNA/DNA substrate fluorescence; at 10 µM; stronger effect = higher value

Row | Compound | inhibition
1 | COc1ccc(OC)c(C=C(C#N)C#N)c1 | inactive: 11%
2 | N#CC(C#N)=Cc1ccc(Br)cc1 | inactive: 17%
